The assay addresses Collagenase 3 (Homo sapiens, UniProt P45452). Nature of the assay: In vitro inhibition of human matrix metalloprotease-13.

Each structure is given as a SMILES string.

The values that follow come from ChEMBL document CHEMBL1134591, “N-Aryl sulfonyl homocysteine hydroxamate inhibitors of matrix metalloproteinases: further probing of the S(1), S(1)', and S(2)' pockets” (J Med Chem, 2001).

The term IC50 denotes the concentration needed to halve the response being measured. Low readings indicate inhibition by little substance, high ones a need for much substance. As to `COc1ccc(S(=O)(=O)N(CC(C)C)C(CCSCc2ccc(OCc3ccccc3)cc2)C(=O)NO)cc1` (stereo unspecified), the IC50 was 20 nM.
